Our source for the Ratio and Kinact values is ChEMBL document CHEMBL6092226, “Tilting the Scales toward EGFR Mutant Selectivity: Expanding the Scope of Bivalent "Type V" Kinase Inhibitors” (J Med Chem, 2024).

In experiment [1] the test system is Epidermal growth factor receptor (Homo sapiens), P00533 [L858R]. Kind of experiment: Time-dependent irreversible inhibition of GST-tagged EGFR L858R mutant cytoplasmic domain (669 to 1210 residues) (unknown origin) assessed as apparent Kinact/Ki ratio incubated for 240 mins in presence of ATP by fluorescence based analysis.
In experiment [2] the test system is Epidermal growth factor receptor (Homo sapiens), P00533 [L858R,T790M]. Kind of experiment: Time-dependent irreversible inhibition of GST-tagged EGFR L858R/T790M mutant cytoplasmic domain (669 to 1210 residues) (unknown origin) assessed as maximal rate inactivation constant (Kinact) incubated for 240 mins in presence of ATP by fluorescence based analysis.
Experiment [3] relates to Epidermal growth factor receptor (Homo sapiens), P00533 [L858R]. In words: Time-dependent irreversible inhibition of GST-tagged EGFR L858R mutant cytoplasmic domain (669 to 1210 residues) (unknown origin) assessed as maximal rate inactivation constant (Kinact) incubated for 240 mins in presence of ATP by fluorescence based analysis.
The target in experiment [4] is T1, Epidermal growth factor receptor (Homo sapiens, UniProt P00533). Kind of experiment: Time-dependent irreversible inhibition of N-terminal GST-tagged wildtype human EGFR cytoplasmic domain (669 to 1210 residues) extracted from Sf21 insect cells assessed as maximal rate inactivation rate (Kinact) incubated for 240 mins in presence of ATP by fluorescence based analysis. Type of experiment: cell-based.

In experiment [5] the target is T1, Epidermal growth factor receptor. In words: Time-dependent irreversible inhibition of N-terminal GST-tagged wildtype human EGFR cytoplasmic domain (669 to 1210 residues) extracted from Sf21 insect cells assessed as apparent Kinact/Ki ratio incubated for 240 mins in presence of ATP by fluorescence based analysis. In kind it is cell-based.
The subject of experiment [6] is Epidermal growth factor receptor (Homo sapiens), P00533 [L858R,T790M]. In words: Time-dependent irreversible inhibition of GST-tagged EGFR L858R/T790M mutant cytoplasmic domain (669 to 1210 residues) (unknown origin) assessed as apparent Kinact/Ki ratio incubated for 240 mins in presence of ATP by fluorescence based analysis.

Molecules are shown by their SMILES.

With `C=CC(=O)Nc1ccc(OC)c(Nc2cc(-c3[nH]c(SC)nc3-c3cccc(NC(=O)c4ccccc4CN4Cc5ccccc5C4=O)c3)ccn2)c1`, the Ratio in experiment [1] is 24500 M⁻¹ s⁻¹; in experiment [5], 1350 M⁻¹ s⁻¹; in experiment [6] it was 2930 M⁻¹ s⁻¹. Also, the Kinact is 0.001 s⁻¹ in experiment [2], 0.006 s⁻¹ in experiment [3] and 0.001 s⁻¹ in experiment [4].
